# Ab-14 light chain CDR variants: yeast mating affinities

Reference: Li et al. 2023, doi:10.1038/s41467-023-39022-2. File: FLAb, binding data.

Target: peptide PDVDLGDISGINAS, taken from heptad repeat 2 (HR2) of SARS-CoV-2 spike.

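The parent was found by panning a naive human phage display library on the peptide. This is the validation round: designs drawn from the data on random variants, tested in the same kind of assay. Group labels follow the data file (Ctrl: baseline library sampled from a position-specific scoring matrix, with some repeated check sequences; En: ensemble of fine-tuned language models; GP: Gaussian process model; HC: hill climbing; Gen: genetic algorithm; Gibbs: Gibbs sampling; a sequence that several methods proposed may carry one label only). The assay is AlphaSeq: two haploid yeast populations carry antibody and antigen on their surface. Mating (16 h, 30 °C) was followed by selection of diploids and sequencing of their barcodes. A regression on co-assayed BCL2-family reference pairs converts the normalised counts of each replicate to an apparent Kd. There are six technical replicates.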

Each scFv is VH, three GGGGS repeats, VL, as in the parent Ab-14, and differs from it in the CDRs of the light chain only.
VH: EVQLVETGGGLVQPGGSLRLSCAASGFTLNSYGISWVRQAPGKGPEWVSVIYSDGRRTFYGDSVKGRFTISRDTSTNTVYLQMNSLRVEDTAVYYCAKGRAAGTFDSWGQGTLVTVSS
VL: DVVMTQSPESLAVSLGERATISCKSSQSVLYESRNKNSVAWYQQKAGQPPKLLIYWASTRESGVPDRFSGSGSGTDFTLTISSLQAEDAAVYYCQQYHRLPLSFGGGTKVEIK

The parent's light chain CDRs are KSSQSVLYESRNKNSVA, WASTRES, QQYHRLPLS; each variant's own CDRs replace them letter for letter. This list holds designs with more than six substitutions. Values are apparent Kd, the geometric mean of the replicates that gave a signal; lower means stronger binding. An entry "no signal" has no value in the source: the pair was not observed among the diploids in any replicate. This suggests poor binding but is not conclusive. Values of this round are not directly comparable with the first-round values of the same sequences.

For HMSALTLSGMYHRNSVA | QMTTREN | QQYDHLPLS [En_Gen], the assay gave 9.4 nM (6 of 6 replicates). Variant KISMSYRYESQSKNSIA | EMSRREN | QQYHRLPLS [En_HC] showed 1.7 nM (6 of 6 replicates). Variant MVTQLAMTGMNSKRSVA | NAETREN | QQYHRLPLI [En_Gen] gave 2.2 nM (6 of 6 replicates). For KLQGSDLYESRMKNSVA | QASVRES | QQYHRLPLS [GP_Gibbs], the assay gave 2.2 nM (6 of 6 replicates). For KLHQEVGYESRNKNSVA | GGSQRES | QQYHRLPLS [GP_Gibbs], the assay gave 550 pM (6 of 6 replicates). Variant TIGQVMNWESRNKNSVA | QTSEREE | QDYDRLPLS [En_HC] showed 7.9 nM (6 of 6 replicates). Variant TISQSAHMESHNKNNVA | DLNLRGS | QQYDRLPLS [En_HC] gave 4.4 nM (6 of 6 replicates). Variant KIMQSLNYEQFNVSNVA | GQETREN | QSYHRLPLS [En_HC] gave 67 nM (6 of 6 replicates). Variant TISQSADQESHNKNSVA | DLSVRGS | QQYHRLPLS [En_HC] gave 7.4 nM (6 of 6 replicates).

Variant KLRMLTLTGGYFKNSVA | QASTRLN | QSYHRLPLS [En_HC] gave 150 nM (4 of 6 replicates). Variant TISQLYNMGQFAINSVA | QASERCN | QQYDRLPLI [En_Gen] gave 13 nM (6 of 6 replicates). Variant QINVNRLMNYLLNNAIA | GKTLRVD | QQYARLPLS [En_Gibbs] gave 330 nM (3 of 6 replicates). Variant NLAMALEQGILIKNNIA | SDNLREN | QQYEKLPLI [En_Gibbs] showed 9.8 nM (6 of 6 replicates). For MLSYNLHDMDRNKNNVA | EMNKKTT | QDYHRLPLA [En_Gibbs], the assay gave 570 pM (6 of 6 replicates). Variant TIDLYTSYGNGENKAIA | DVSIKDY | QQYARLPLL [En_Gibbs] showed 4.3 nM (6 of 6 replicates). With KVMQLELYEQRNANNVA | NGSTRES | QQYHRLPLS [GP_Gibbs] the result was 610 pM (6 of 6 replicates). Variant SCPSEMDQQQEQVNSVA | GEQHTAD | QQYGRLPLS [En_Gibbs] showed 17 nM (1 of 6 replicates). For TISTSMRYESSLKNAIA | NAQTRES | QQYHRLPLI [En_HC], the assay gave 8.0 nM (6 of 6 replicates).

Variant KLSATYRYESQNKNSIA | EMTTREK | QCYHRLPLS [En_HC] gave 83 nM (5 of 6 replicates). With KLWMSVLGESRNQNAVA | SASTREL | QQYHRLPLS [GP_Gibbs] the result was 4.5 nM (6 of 6 replicates). Variant KLSQMLHVTGVHSNNVA | ELTMRGN | QQYHRLPLS [En_Gen] showed 8.6 nM (6 of 6 replicates). With KISQMSSIESITHNSVA | QTSTRES | QQYDRLPLS [En_HC] the result was 5.4 nM (6 of 6 replicates). Variant KLEQSDWLQSRNVNSVA | QASTRES | QQYHRLPLS [GP_Gibbs] gave 1.4 nM (6 of 6 replicates). Variant KQSQMVEYESRNLNSVA | WAKTREH | QQYHRLKLS [Ctrl] showed no signal (0 of 6 replicates). For TISGMSNAASSKHNSVA | NVTMRPD | QQYHRLPLS [En_Gen], the assay gave 6.3 nM (6 of 6 replicates). Variant IVSQLMIWGMHVKNSIA | EAQTRVN | QQYDRLPLI [En_Gen] gave no signal (0 of 6 replicates). For KLQGSELGESRNKNSVA | SADTRCE | QQYHRLPLS [GP_Gibbs], the assay gave 1.7 nM (6 of 6 replicates).

Variant KIAQLVMETSKNKNNVA | EVSTLPD | QQYHRLPLS [En_HC] gave 22 nM (4 of 6 replicates). With KLWEDFYHGQVELSAIA | DGEHLNM | QQYSHLPLS [En_Gibbs] the result was 9.9 nM (6 of 6 replicates). For HMTIDTEMEAKHQNSVA | EASHTEY | QQYSELPLT [En_Gibbs], the assay gave no signal (0 of 6 replicates). Variant NMQLQVRNGNNNKYNIA | AEMKREY | QQYQRLPLS [En_Gibbs] showed no signal (0 of 6 replicates). With KLHISDGYESRNKNSVA | AASTRSH | QQYHRLPLS [GP_Gibbs] the result was 1.3 nM (6 of 6 replicates).

The authors' rule: three or more of the six replicates give a measured affinity, fewer mean a poor binder. Three control strains display no target. For all light chain designs, 4% of the pairings with them gave a signal, with a median of 430 nM and one signal in twenty below 38 nM, so weak values seen in few replicates may be background.